Protein sequences, listed by entry. Tags and fused reporters are not part of them. Residues count along the entry.
UniProt P15207, 651-882 limits assumed: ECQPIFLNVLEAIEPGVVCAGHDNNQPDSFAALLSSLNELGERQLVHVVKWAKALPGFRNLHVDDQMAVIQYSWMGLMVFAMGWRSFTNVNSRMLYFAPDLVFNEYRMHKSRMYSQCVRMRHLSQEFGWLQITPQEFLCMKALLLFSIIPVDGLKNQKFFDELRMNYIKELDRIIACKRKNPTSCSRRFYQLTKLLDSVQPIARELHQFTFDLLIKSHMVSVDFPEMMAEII

In US20240150313A1, “TRI-SUBSTITUTED INDOLE BINDING FUNCTION 3 (BF3) COMPOUNDS AND METHODS FOR THEIR USE” (The University of British Columbia, priority 2021, published 2024):

Key:
LNCaP cells = experiment: Cell viability / proliferation assay (Prestoblue), LNCaP; type: cell-based; settings: Homo sapiens, read-out: IC50 cell proliferation / growth
Method: (§1) After 3 days of treatment, cell density was measured using the Prestoblue™ assay (Thermo Fisher Scientific™).
(§2) LNCaP, PC3 and MR49F human PCa cells were serum-starved in RPMI 1640 media (Invitrogen™) supplemented with 5% charcoal-stripped serum (CSS) (RPMI 1640 medium with 5% CSS) for 5 days prior to transfection.

PC3 (AR negative) cells = experiment: Cell viability / proliferation assay (Prestoblue), PC3; type: cell-based; settings: Homo sapiens
Method: as §1, §2

[1] = molecular target: androgen binding site (ABS) of recombinant wild type LBD (Rattus norvegicus, UniProt P15207)

For CC(C)NC(=O)c1cccc2nc(-c3c[nH]c4c(F)c(F)c(F)cc34)ccc12 [Compound 13789, N-isopropyl-2-(5,6,7-trifluoro-1H-indol-3-yl)quinoline-5-carboxamide], the IC50 (LNCaP cells) was 320 nM, the IC50 (PC3 (AR negative) cells) was 380 nM and the “% Disp. @ 10 UM (DHT displacement from the ABS site)” value [1] was 11 ± 3.1%.
